High-throughput results deposited in PubChem BioAssay by ICCB-Longwood Screening Facility, Harvard Medical School.
Rows were chosen to be rich in hits. Some 0.46% of all compounds tested hit in one or more screens of this group.
GIV-Gai inh = GIV-Galpha-i interaction inhibition; AID 1224905; 210,000 tested, 0.42% active; Galpha-i3/FITC-GIV peptide fluorescence polarization, 90 min; stronger effect = lower value; scaled: aluminum fluoride 0%, vehicle 100%; percent of control (FP), % (concentration not given with the values);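 active = replicate mean at 85% of control or lower, very high polarization wells dropped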;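 also: wells of about 15 µL received 100 nL stock; the first replicate is given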
HCMV UL50-53 inh = inhibitors of HCMV UL50-UL53 nuclear egress complex interaction; HTRF UL50-UL53 interaction, normalized percent inhibition; inhibition, % (test concentration not listed); 190,000 tested, 0.15% active; AID 1918969; in the data active = inhibition above about 27%, passing the limit was not always enough
GIV-Gai FP conf = GIV-Galpha-i3 inhibition, FP confirmation; shares compounds with GIV-Gai inh; FITC-GIV peptide binding to Galphai3, fluorescence polarization; active compounds read low; fluorescence polarization, mP at 100 µM; 580 tested, 38% active; AID 1259350;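 active = inhibition score of 15 or more, meaning 100 minus mean polarization as percent of control over three replicates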;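 also: lower mP means peptide displaced from Galphai3 so more inhibition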
GIV-Gai AS conf = GIV-Galpha-i3 inhibition, AlphaScreen confirmation; shares compounds with GIV-Gai inh; AlphaScreen Galphai3-GIV binding, purified proteins, 90 min; active compounds read low; AlphaScreen counts at 100 µM; 580 tested, 39% active;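 active = inhibition score at or above a set limit, where the score is 100 minus the three-replicate mean percent of control signal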
* marks the source's active call; other numbers are inactive results; x = not tested or not shown.

entry	SMILES	GIV-Gai inh	HCMV UL50-53 inh
1	CCOc1ccc(C2c3[nH]c4ccccc4c3CCN2C(=O)c2cccs2)cc1 (stereo unspecified)	105.2	x
2	Cc1cc(N2CCOCC2)c(F)cc1C(=O)c1ccccc1	91.8	-23.1
3	Cc1ccc(C(=O)c2cc(F)c(N3CCOCC3)cc2Cl)cc1C	104.5	x
4	CCc1ccc(C2=C(C)C(N3CCCN(S(=O)(=O)CC)CC3)=NS2(=O)=O)cc1	106.8	x
5	O=C(NCc1ccccc1Cl)c1cccc(Cn2c(=O)c3cccn3c3cccnc32)c1	103.1	16.8
6	Cc1cc(N2Cc3ccccc3C2)ccc1/C=C1/C(=O)NC(=O)N(C2CCCCC2)C1=O	86.9	x
7	Cc1ccc(/C=C2/C(=O)NC(=O)N(C3CCCCC3)C2=O)cc1	100.5	-0.6
8	CCOc1ccc(CC(=O)NCC(c2ccc3c(c2)CCCN3C)N2CCCC2)cc1 (stereo unspecified)	105.2	-12.7
9	CN1CCCc2cc(CN)ccc21	69.5*	-0.5
10	Cc1nc(-c2ccc(C(=O)N3CCC(C(=O)N4CCOCC4)CC3)cc2)no1	99.4	x
11	Nc1cccc2c1C(=O)N(CC(=O)NC13CC4CC(CC(C4)C1)C3)C2=O	x	-16.8
12	Nc1cccc2c1C(=O)N(CC(=O)O)C2=O	80.9*	-41.4
13	O=C(c1cc2ccccc2o1)N(C1CC1)C1CCS(=O)(=O)C1 (stereo unspecified)	x	18.4
14	CCn1c2ccccc2c2nc3cc4ccccc4cc3nc21	44.0*	-7.8
15	CCn1c2ccc(OC)cc2c2nc3ccccc3nc21	96.1	-60.1

entry	GIV-Gai FP conf	GIV-Gai AS conf
1	x	x
2	68.4	43945
3	x	x
4	x	x
5	x	x
6	71.3	48945
7	x	x
8	x	x
9	53.6*	4022*
10	x	x
11	x	x
12	72.1	47777
13	x	x
14	39*	55414
15	x	x

GIV-Gai inh, hit marks shown above.
# | SMILES | GIV-Gai inh | GIV-Gai FP conf | GIV-Gai AS conf
9 | CN1CCCc2cc(CN)ccc21 | 69.5* | 53.6* | 4022*
12 | Nc1cccc2c1C(=O)N(CC(=O)O)C2=O | 80.9* | 72.1 | 47777
14 | CCn1c2ccccc2c2nc3cc4ccccc4cc3nc21 | 44.0* | 39* | 55414

Continuation.
entry	SMILES	GIV-Gai inh	HCMV UL50-53 inh
16	COc1cccc(NC(=O)c2sc3nc4c(c(-c5ccco5)c3c2N)CCC4)c1	85.4*	x
17	COc1ccc(NC(=O)c2sc3nc(-c4cccs4)cc(C(F)(F)F)c3c2N)cc1	75.0*	x
18	Nc1c(C(=O)NC2CC2)sc2nc(-c3cccs3)cc(C(F)(F)F)c12	44.9*	x
19	Nc1c(C(=O)N2CCCCC2)sc2nc(-c3cccs3)cc(C(F)(F)F)c12	x	-0.6
20	COc1cccc(NC(=O)c2sc3nc4c(c(-c5ccc(C)o5)c3c2N)CCCC4)c1	115.3	x
21	COc1ccc(-c2c3c(nc4sc(C(=O)Nc5cccc(OC)c5)c(N)c24)CC(C)(C)CC3=O)cc1	104.2	-26.1
22	COc1ccc(NC(=O)c2sc3nc4c(c(-c5ccc(OC)cc5)c3c2N)C(=O)CC(C)(C)C4)cc1	70.2*	-39.7
23	Nc1c(C(=O)N2CCOCC2)sc2nc(-c3cccs3)cc(C(F)(F)F)c12	108.0	x
24	Cc1ccccc1NS(=O)(=O)c1cc2c(c([N+](=O)[O-])c1)-c1c(cc(S(=O)(=O)Nc3ccccc3C)cc1[N+](=O)[O-])C2=O	106.9	x
25	Fc1ccc(OCc2nnc3sc(-c4ccccc4F)nn23)cc1	110.2	3.7
26	COc1cc(Cl)c(C)cc1NC(=O)C1CSC2(C)CCC(=O)N12 (stereo unspecified)	x	8.5
27	Cc1ccc2c(C(=O)N3CCCC3)cc(-c3cnn(C(C)C)c3)nc2c1	x	-12.1
28	CCN(CC)CCNC(=O)c1sc2ncnc(N3CCN(c4ccccn4)CC3)c2c1C	103.5	x
29	C=CCOc1ccc(/C=C2/C(=O)NC(=S)N(c3ccc(Cl)cc3)C2=O)cc1OC	116.5	-14.1
30	Cc1cc(C(F)(F)F)c2c(N)c(C(=O)Nc3ccc(F)cc3)sc2n1	60.9*	-18.4

entry	GIV-Gai FP conf	GIV-Gai AS conf
16	65.2	51091
17	67.7	53981
18	63.5	53248
19	x	x
20	x	x
21	x	x
22	80.9	32279
23	x	x
24	x	x
25	x	x
26	x	x
27	x	x
28	x	x
29	x	x
30	63.8	59274

Next structures follow:
entry	SMILES	GIV-Gai inh	HCMV UL50-53 inh
31	COc1ccc(NC(=O)c2sc3nc(C)cc(C(F)(F)F)c3c2N)cc1	125.4	x
32	CCc1c(C#N)c(N)nc2sc(C(=O)Nc3ccc(Br)cc3)c(N)c12	x	-18.9
33	CCOc1ccc(-c2c(C#N)c(N)nc3sc(C(=O)Nc4ccc(Br)cc4)c(N)c23)cc1	86.0	-16.1
34	Cn1c(C(=O)NCc2cccs2)cc2c(=O)[nH]c3ccccc3c21	100.4	3.2
35	CCOc1ccc(CCNC(=O)c2cc(C)[nH]n2)cc1OCC	101.9	-24.0
36	CN(C)c1ccc(-c2nc3c([nH]2)c(=O)n(C)c(=O)n3C)cc1	75.4*	x
37	Cn1c(=O)c2[nH]c(-c3ccccc3)nc2n(C)c1=O	98.5	-21.0
38	CCN1C(C)=C(C)S/C1=C1\SC(=S)N(NC(C)=O)C1=O	106.3	x
39	CCN1C(C)=C(C)S/C1=C1\SC(=S)N(C2CCCCC2)C1=O	94.2	-24.2
40	O=C1/C(=C/c2ccc(Cl)cc2)C=C(c2ccccc2)N1c1ccc(Cl)cc1	82.2*	x
41	O=C1/C(=C/c2ccc(Cl)cc2)C=C(c2ccccc2)N1c1ccccc1	125.4	x

entry	GIV-Gai FP conf	GIV-Gai AS conf
31	x	x
32	x	x
33	63.7	51717
34	x	x
35	x	x
36	85.2	28569
37	x	x
38	x	x
39	73	44037
40	103	40363
41	x	x
